# From PubChem BioAssay AID1688 (National Center for Advancing Translational Sciences (NCATS), 2009)
# The list shows a part of the results, in another mix than the full data. Results filed as inconclusive are left out. Some structures show a salt or complex split into parts, the way the source records it. Activity calls are given as the source filed them. The call rests on the fitted dose curve; in most records, active means well fitted inhibition curve with a large enough effect; inconclusive means small, poorly fitted or top-dose-only effect, or effect the other way; inactive means no such curve, though single readings can be large or run the other way.
# Assay: qHTS Multiplex Assay to Identify Dual Action Probes in a Cell Model of Huntington: Aggregate Formation (GFP); further: nearly all actives have a fitted effect of over 60% in size
# Conditions: PC12 HttQ103-GFP aggregates, Acumen cytometry, 40 h; at 46.1 µM (top of the series) unless noted
# On the % scale 0 is the no-effect control and ±100 the full control effect.
row,Compound,"activity change, negative = inhibition"
1,COc1ccc(C(=O)NCC2(N3CCOCC3)CCCCC2)cc1OC,inactive: -5.41%
2,O=C(OC1CN2CCC1CC2)C1c2ccccc2C=Cc2ccccc21 (configuration not stated),inactive: 9.7%
3,O=C(O)c1cccc(Nc2c([N+](=O)[O-])cc([N+](=O)[O-])cc2[N+](=O)[O-])c1,inactive: -23.8% [at 9.22 µM]
4,N/C(=N\O)c1c(N)no[n+]1[O-],inactive: 9.22%
5,CCOC(=O)C(CC)C1=NC(C)(C)Cc2ccccc21.O=[N+]([O-])c1cc([N+](=O)[O-])c(O)c([N+](=O)[O-])c1 (configuration not stated),inactive: 10.4% [at 9.22 µM]
6,N#Cc1ccc(C(=O)NCC2(N3CCCCC3)CCCCC2)cc1,inactive: -3.41%
7,c1ccc(CN2CCC(Nc3ccccc3)CC2)cc1,inactive: 6.89%
8,Fc1ccccc1NC1CCN(Cc2ccccc2)CC1,inactive: 10.2%
9,CN(C)c1ccc(C(=O)NCC2(N3CCCCC3)CCCCC2)cc1,inactive: 4.69%
10,CCN1CCC(Nc2cccc(F)c2)CC1,inactive: -3.24%
11,CC(C)(C)OC(=O)N1CCC(Nc2ccccc2)CC1,inactive: 19.7%
12,CCOc1ncccc1C(=O)NCC1(N2CCOCC2)CCCCC1,inactive: -0.8%
13,CCCOc1ccc(C)cc1CN(CCCl)CCCl,inactive: -7.52% [at 9.22 µM]
14,COc1cc(OC)cc(C(=O)NCC2(N3CCOCC3)CCCCC2)c1,inactive: -3.19%
15,CCC(CO)(C(=O)OC1CN2CCC1CC2)c1ccccc1 (configuration not stated),inactive: 22.3% [at 9.22 µM]
16,COc1ccc(C(=O)NCC2(N3CCCCC3)CCCCC2)c(OC)c1OC,inactive: 17.6%

row,Compound,"activity change, negative = inhibition"
1,N#CC1(Nc2ccccc2)CCN(Cc2ccccc2)CC1,inactive: -17.5% [at 9.22 µM]
2,O=C(OC1CN2CCC1CC2)C1c2ccccc2Oc2ccccc21 (configuration not stated),inactive: -0.585%
3,CCOC(=O)N1CCC(Nc2ccc(OC)cc2)CC1,inactive: 0% [at 9.22 µM]
4,O=C(NCC1(N2CCOCC2)CCCCC1)c1cc2ccccc2o1,inactive: 0.734% [at 9.22 µM]
5,COc1ccc(NC2CCN(CCc3ccccc3)CC2)c(OC)c1,inactive: 7.61%
6,CCOc1ccc(C)cc1CN(CCCl)CCCl,inactive: -12.9% [at 9.22 µM]
7,Cc1ccc(OCC(C)C)c(CN(CCCl)CCCl)c1,inactive: 16% [at 9.22 µM]
8,N#CC1(Nc2ccccc2)CCN(CCc2ccccc2)CC1,inactive: -6.04%
9,O=C(NCC1(N2CCCCC2)CCCCC1)c1cccc([N+](=O)[O-])c1,inactive: -14.2%
10,O=C(NCC1(N2CCOCC2)CCCCC1)c1cc(=O)[nH]c2ccccc12,inactive: -12% [at 9.22 µM]
11,CN1CCN(CCOC(=O)C(O)(c2ccccc2)c2ccccc2)CC1,inactive: 1.7%
12,COc1ccc(NC2CCN(C(=O)OC(C)(C)C)CC2)cc1,inactive: 13.2%
13,COc1ccc(CN(CCCl)CCCl)cc1Cl,inactive: 15.1% [at 9.22 µM]
14,CN(C)c1cccc(C(=O)NCC2(N3CCCCC3)CCCCC2)c1,inactive: -2.74%
15,O=C(OC1CN2CCC1CC2)c1ccc([N+](=O)[O-])cc1 (configuration not stated),inactive: -9.09% [at 9.22 µM]
16,COc1ccc2c(c1O)-c1c(O)c(OC)cc3c1[C@H](C2)[N+](C)(C)CC3.O=[N+]([O-])c1cc([N+](=O)[O-])c([O-])c([N+](=O)[O-])c1[O-],inactive: -36.5% [at 9.22 µM]
